Assay results as given in PubChem BioAssay (Tox21).
Where “and” joins values, the source holds several entries; their conditions need not be identical. Equal entries are not always repeated. This is a selection; strong and weak results do not stand in their true shares. Results filed as inconclusive are left out. A structure can be active in one record and inactive in another. Calls of active or inactive are those of the source. Calls follow the shape of the dose curve; as a rule, active = well fitted inhibition curve with a large enough effect in the repeat runs; inconclusive = weak or mixed curves; inactive = no such curve, though single readings can be large or run the other way.
% is scaled to controls: 0 for no effect and ±100 for the full control effect; potency is read from the fitted curve at half-maximal effect.
Also: nearly all actives have a fitted effect of over 50% in size.

Chains of the proteins cited; added tags and fusions are not shown.
UniProt P11712, whole entry: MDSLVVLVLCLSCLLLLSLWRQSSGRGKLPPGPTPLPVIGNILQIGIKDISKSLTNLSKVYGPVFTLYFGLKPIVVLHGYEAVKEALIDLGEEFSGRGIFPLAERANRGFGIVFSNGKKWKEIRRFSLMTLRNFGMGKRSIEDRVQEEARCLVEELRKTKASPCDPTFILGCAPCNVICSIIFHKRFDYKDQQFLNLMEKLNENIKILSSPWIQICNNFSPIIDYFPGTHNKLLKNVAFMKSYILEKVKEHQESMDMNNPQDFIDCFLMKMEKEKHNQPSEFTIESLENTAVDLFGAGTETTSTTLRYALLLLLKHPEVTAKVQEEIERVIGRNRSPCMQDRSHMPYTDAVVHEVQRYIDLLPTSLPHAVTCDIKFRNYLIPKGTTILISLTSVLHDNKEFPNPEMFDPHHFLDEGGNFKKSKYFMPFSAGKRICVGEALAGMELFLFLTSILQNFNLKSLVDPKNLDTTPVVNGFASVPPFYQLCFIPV
UniProt P05177, whole entry: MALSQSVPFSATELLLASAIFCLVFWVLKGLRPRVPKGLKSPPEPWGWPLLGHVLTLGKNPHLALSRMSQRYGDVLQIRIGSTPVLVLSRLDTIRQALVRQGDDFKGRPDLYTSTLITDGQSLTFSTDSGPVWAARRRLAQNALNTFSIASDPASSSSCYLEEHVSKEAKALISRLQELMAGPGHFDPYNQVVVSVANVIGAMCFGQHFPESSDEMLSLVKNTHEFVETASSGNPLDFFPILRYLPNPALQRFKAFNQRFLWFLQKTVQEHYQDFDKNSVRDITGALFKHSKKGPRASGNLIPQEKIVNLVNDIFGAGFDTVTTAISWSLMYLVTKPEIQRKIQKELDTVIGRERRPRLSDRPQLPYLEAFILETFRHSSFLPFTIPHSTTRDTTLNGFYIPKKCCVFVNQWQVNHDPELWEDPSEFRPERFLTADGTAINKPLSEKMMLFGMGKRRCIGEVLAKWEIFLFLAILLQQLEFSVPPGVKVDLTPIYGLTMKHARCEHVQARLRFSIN

The molecules below were run against Cytochrome P450 2C9 (Homo sapiens) (UniProt P11712) (assay: Cytochrome P450 Family 2 Subfamily C Member 9 (CYP2C9) small molecule antagonists: luciferase reporter qHTS assay (AID 1671198)). Conditions: P450-Glo CYP2C9 enzyme assay, luciferin luminescence; series mostly up to 115 µM; activity change, negative = inhibition: at the top concentration.
Outline: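 P450-Glo proluciferin substrate with CYP2C9 enzyme; 10 min RT preincubation, then NADPH regeneration 1 h at 37C; luciferin detection reagent 20 min RT, luminescence in relative luminescence units.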
With `Cc1cccc([N+](=O)[O-])c1[N+](=O)[O-]` the Potency was active: 12.6 µM.
`CC(C)N(CCO)C(C)C` was tested, and the “activity change, negative = inhibition” value was inactive: -1.74%.
In the case of `CCN(CC)CCCl`, the “activity change, negative = inhibition” value is reported as inactive: 11.9%.
With `OCCSCCO` the Potency was active: 36.2 µM and inactive.
`CC(C)OP(C)(=O)OC(C)C` was tested, and the Potency was active: 31.7 µM and inactive.
For `O=[N+]([O-])OCC(CO[N+](=O)[O-])(CO[N+](=O)[O-])CO[N+](=O)[O-]`, the “activity change, negative = inhibition” value was inactive: -10.6%.
With `N=C(N)N[N+](=O)[O-]` the “activity change, negative = inhibition” value was inactive: -13.9%.
For `O=[N+]([O-])[O-].[NH4+]`, the “activity change, negative = inhibition” value was inactive: -12.3%.
With `COc1ccc([N+](=O)[O-])cc1[N+](=O)[O-]` the “activity change, negative = inhibition” value was inactive: -19.1%.
`CCOP(=O)(CC)Oc1ccc([N+](=O)[O-])cc1` (stereo not given) was tested, and the “activity change, negative = inhibition” value was inactive: 6.97% [at 53 µM].
In the case of `Nc1cc([N+](=O)[O-])cc([N+](=O)[O-])c1O`, the Potency is reported as active: 8.15 µM.
`COP(C)(=O)OC` was tested, and the Potency was “inactive”.
For `Cc1c([N+](=O)[O-])cccc1[N+](=O)[O-]`, the Potency was “inactive”.
`Cc1ccc([N+](=O)[O-])c([N+](=O)[O-])c1` was tested, and the Potency was “inactive”.
With `N#CBr` the “activity change, negative = inhibition” value was inactive: -2.22%.
`CCOP(=O)(CC)OCC` was tested, and the “activity change, negative = inhibition” value was inactive: -9.06%.
With `CN(C)CCCl` the “activity change, negative = inhibition” value was inactive: 0.689%.
With `CP(=O)(O)OCCC[Si](O)(O)O` the “activity change, negative = inhibition” value was inactive: -1.36%.

These molecules were tested against Cytochrome P450 1A2 (Homo sapiens) (UniProt P05177) (assay: Cytochrome P450 Family 1 Subfamily A Member 2 (CYP1A2) small molecule antagonists: luciferase reporter qHTS assay (AID 1671199)). Conditions: P450-Glo CYP1A2 enzyme, luciferin luminescence, 1 h; series mostly up to 115 µM; activity change, negative = inhibition: at the top concentration.
With `CC(C)N(CCO)C(C)C` the Potency was active: 35.6 µM.
In the case of `CCN(CC)CCCl`, the “activity change, negative = inhibition” value is reported as inactive: -1.11%.
In the case of `O=[N+]([O-])c1cccc([N+](=O)[O-])c1`, the Potency is reported as active: 45.5 µM.
With `OCCSCCO` the Potency was “inactive”.
In the case of `CC(C)OP(C)(=O)OC(C)C`, the Potency is reported as active: 35.6 µM and inactive.
With `Cc1ccc([N+](=O)[O-])cc1[N+](=O)[O-]` the Potency was active: 22.1 µM and active: 22.4 µM.
For `O=[N+]([O-])OCC(CO[N+](=O)[O-])(CO[N+](=O)[O-])CO[N+](=O)[O-]`, the Potency was active: 35.6 µM.
For `N=C(N)N[N+](=O)[O-]`, the “activity change, negative = inhibition” value was inactive: -11.4%.
With `COc1ccc([N+](=O)[O-])cc1[N+](=O)[O-]` the Potency was active: 10 µM.
With `CCOP(=O)(CC)Oc1ccc([N+](=O)[O-])cc1` (stereo not given) the “activity change, negative = inhibition” value was inactive: -5.68% [at 53 µM].
For `Nc1cc([N+](=O)[O-])cc([N+](=O)[O-])c1O`, the “activity change, negative = inhibition” value was inactive: -28.2%.
For `COP(C)(=O)OC`, the Potency was “inactive”.
`Cc1c([N+](=O)[O-])cccc1[N+](=O)[O-]` was tested, and the Potency was active: 19.7 µM and active: 20 µM.
For `Cc1ccc([N+](=O)[O-])c([N+](=O)[O-])c1`, the Potency was active: 28.9 µM and active: 28.3 µM.
`[NH4+].[O-][Cl+3]([O-])([O-])[O-]` was tested, and the Potency was “inactive”.
With `CN(C)CCCl` the “activity change, negative = inhibition” value was inactive: -11.1%.
With `CP(=O)(O)OCCC[Si](O)(O)O` the “activity change, negative = inhibition” value was inactive: -15.3%.
